System: rabbit anti-thymosin α1 antiserum
Assay: radioimmunoassay for thymosin α1 (inhibition of tracer binding / cross-reactivity, double antibody method)
Conditions: Table 1; 125I-[Tyr1]-thymosin α1 tracer
Description: a. Preparation of antisera
Synthetic thymosin α1 was coupled to Keyhole Limpet Hemocyanin (KLH) by means of glutaraldehyde using the following procedure. Equivalent amounts (dry weight) of each protein, thymosin α1 and hemocyanin, were dissolved in 0.25 M NaPO4, pH 7.0 buffer at a concentration of 2 mg/ml. […] The reaction was allowed to continue for 3 hours while being stirred at room temperature. The reaction mixture was diluted in sterile saline to a final concentration of thymosin α1 of 100 μg/ml. The solution of coupled thymosin α1 was aliquoted and stored at -20° C.
The mixture of products resulting from the cross-linking reactions carried out at room temperature was not fractionated or purified in any way. The thymosin α1 KLH conjugate was diluted with sterile normal saline and stored frozen for immunizations. […]
Separation of free from bound tracer is carried out by the addition of goat anti-rabbit gamma globulin serum, incubation for 1 hour at 37° C. and finally incubation at 4° C. for 16 hours. The immunoprecipitate is pelleted by centrifugation at 2500 rpm for 20 minutes, the supernatant is aspirated and discarded, and the radioactivity in the immunoprecipitate is counted in an automatic gamma spectrometer. […]

ED50 - Amount of protein (ng) required to produce a 50% inhibition in RIA: > 500,000 ng
Substance: Serum albumin (human): Serum albumin (human)

Source: patent publication US4339427A, “Radioimmunoassay of thymosinα” (Hoffmann-la Roche Inc., priority 1980, dated 1982)
